The target of this experiment is Muscarinic acetylcholine receptor M4 (Homo sapiens, UniProt P08173). The experiment is described as follows: Positive allosteric modulation of human M4 receptor expressed in CHO cells co-expressing Gqi5 assessed as increase in acetylcholine-induced calcium mobilization relative to acetylcholine. The format is functional, cell-based.

Amino acid sequences for entries named in this document (tags omitted).
UniProt P08173, whole entry: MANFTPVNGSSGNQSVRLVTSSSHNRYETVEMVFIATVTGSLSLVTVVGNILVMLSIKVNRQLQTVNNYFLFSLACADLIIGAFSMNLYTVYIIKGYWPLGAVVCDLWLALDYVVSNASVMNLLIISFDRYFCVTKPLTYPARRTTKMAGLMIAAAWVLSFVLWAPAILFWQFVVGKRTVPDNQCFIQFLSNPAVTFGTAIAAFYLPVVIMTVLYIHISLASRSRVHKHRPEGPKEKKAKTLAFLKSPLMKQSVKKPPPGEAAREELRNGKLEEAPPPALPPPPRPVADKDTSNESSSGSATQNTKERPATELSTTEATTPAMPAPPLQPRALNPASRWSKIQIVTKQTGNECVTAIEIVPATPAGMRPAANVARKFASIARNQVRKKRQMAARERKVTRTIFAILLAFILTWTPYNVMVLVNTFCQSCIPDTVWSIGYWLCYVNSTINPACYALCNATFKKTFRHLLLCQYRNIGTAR

SMILES strings stand for the structures.

With `Cc1nnc2sc(C(=O)NCc3ccc(S(=O)(=O)C(F)(F)F)cc3)c(N)c2c1C`, the %max is 74%.

For the origin of these results see ChEMBL document CHEMBL4177638, “Challenges in the development of an M4 PAM preclinical candidate: The discovery, SAR, and biological characterization of a series of azetidine-derived tertiary amides” (Bioorg Med Chem Lett, 2017).
